Data as given in patent publication US11008301B2, “Piperidinone formyl peptide 2 receptor agonists” (BRISTOL-MYERS SQUIBB COMPANY, priority 2017, dated 2021).

Chains of the proteins cited; added tags and fusions are not shown.
UniProt P25090, whole entry: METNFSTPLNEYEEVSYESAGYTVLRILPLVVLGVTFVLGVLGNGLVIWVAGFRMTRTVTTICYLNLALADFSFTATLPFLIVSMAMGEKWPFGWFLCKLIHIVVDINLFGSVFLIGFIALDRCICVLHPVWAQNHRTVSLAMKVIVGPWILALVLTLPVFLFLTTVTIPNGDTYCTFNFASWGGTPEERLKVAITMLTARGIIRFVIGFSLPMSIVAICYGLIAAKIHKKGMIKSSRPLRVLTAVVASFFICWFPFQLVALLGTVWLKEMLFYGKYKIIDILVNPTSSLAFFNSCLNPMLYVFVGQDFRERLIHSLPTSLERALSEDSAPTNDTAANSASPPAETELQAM

Target: human FPR2 (Homo sapiens (Human), UniProt P25090)
Assay: FPR2 cyclic adenosine monophosphate (cAMP) assay
Conditions: read-out: hFPR2 agonist activity EC50 (hFPR2 Assay), CHO cells overexpressing human FPR2
Procedure: FPR2 and FPR1 Cyclic Adenosine Monophosphate (cAMP) Assays. A mixture of forskolin (5 μM final for FPR2 or 10 μM final for FPR1) and IBMX (200 μM final) were added to 384-well Proxiplates (Perkin-Elmer) pre-dotted with test compounds in DMSO (1% final) at final concentrations in the range of 1.7 nM to 100 μM. Chinese Hamster Ovary cells (CHO) overexpressing human FPR1 or human FPR2 receptors were cultured in F-12 (Ham's) medium supplemented with 10% qualified FBS, 250 μg/ml zeocin and 300 μg/ml hygromycin (Life Technologies). Reactions were initiated by adding 2,000 human FPR2 cells per well or 4,000 human FPR1 cells per well in Dulbecco's PBS (with calcium and magnesium) (Life Technologies) supplemented with 0.1% BSA (Perkin-Elmer). The reaction mixtures were incubated for 30 min at room temperature. The level of intracellular cAMP was determined using the HTRF HiRange cAMP assay reagent kit (Cisbio) according to manufacturer's instruction. […] After a 1-h room temperature incubation, time-resolved fluorescence intensity was measured using the Envision (Perkin-Elmer) at 400 nm excitation and dual emission at 590 nm and 665 nm. […] The potency and activity of a compound to inhibit cAMP production was then determined by fitting to a 4-parametric logistic equation from a plot of cAMP level versus compound concentrations.

Structure (SMILES) | pEC50
CS(=O)(=O)C1CCN(c2ccc(N3CCC[C@@H](NC(=O)Nc4ccc(Cl)cc4F)C3=O)c(C3CC3)c2)C1 (some centres unmarked) | ≥ 8.00
O=C(Nc1ccc(C(F)(F)F)cc1)N[C@@H]1CCCN(c2ccc(N3C4CCC3COC4)cc2)C1=O | ≥ 8.00

pEC50: −log10 of the molar value.
